Assay results from patent publication US7420001B2 (Wyeth, priority 2003, dated 2008).

Assays:
[1] = molecular target: T1, MMP-2 (Homo sapiens, UniProt P08253); assay: In-vitro fluorescence assay of MMP-2 activity; format: biochemical; details: recombinant human MMP-2
T1 construct: purchased Oncogene Research Products (Calbiochem) PF023
T1 sequence (P08253 110-660): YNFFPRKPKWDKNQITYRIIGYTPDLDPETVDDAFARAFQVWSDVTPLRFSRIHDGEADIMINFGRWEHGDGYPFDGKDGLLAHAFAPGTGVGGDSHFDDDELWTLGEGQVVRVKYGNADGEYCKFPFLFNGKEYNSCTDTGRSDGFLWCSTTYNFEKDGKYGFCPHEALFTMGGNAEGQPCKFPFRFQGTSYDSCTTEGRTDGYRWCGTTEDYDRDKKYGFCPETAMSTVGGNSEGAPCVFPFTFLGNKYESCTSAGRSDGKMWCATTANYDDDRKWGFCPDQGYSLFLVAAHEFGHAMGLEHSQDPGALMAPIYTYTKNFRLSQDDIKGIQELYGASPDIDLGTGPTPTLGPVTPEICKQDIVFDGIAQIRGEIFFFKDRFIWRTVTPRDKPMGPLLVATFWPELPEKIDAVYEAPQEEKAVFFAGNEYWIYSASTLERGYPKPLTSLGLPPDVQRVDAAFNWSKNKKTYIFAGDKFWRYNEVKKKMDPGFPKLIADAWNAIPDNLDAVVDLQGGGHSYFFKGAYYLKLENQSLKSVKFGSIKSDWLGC

[2] = molecular target: T2, MMP-13 (Homo sapiens, UniProt P45452); assay: In-vitro fluorescence assay of MMP-13 activity; format: biochemical; details: recombinant human catalytic domain of MMP-13; read-out: MMP-13 IC50
T2 construct: made in house

Row | SMILES | IC50 [1] [µM] | IC50 [2] [µM]
1 | CC(C)[C@H](NS(=O)(=O)c1ccc(-c2ccc(NC(=O)c3cc4ccccc4[nH]3)cc2)cc1)C(=O)O [Example 3] | 0.019 | –
2 | CC(C)[C@H](NS(=O)(=O)c1ccc(-c2ccc(NC(=O)c3cc4ccccc4o3)cc2)cc1)C(=O)O [Example 2, L-2-{4′-[(Benzofuran-2-carbonyl)-amino]-biphenyl-4-sulfonylamino}-3-methyl-butyric acid] | – | 0.0016
